Data from patent US20110263539A1, “SHIP 1 MODULATOR COMPOUNDS” (THE UNIVERSITY OF BRITISH COLUMBIA, priority 2006, published 2011).

System: J774.1a macrophage cells
Assay: Macrophage TNF-α NO assay (Assay 3); note: key: a ‘+’ indicates a positive result for desired activity; a ‘−’ indicates a negative result for desired activity
Format: cell-based
Details: 10 μg/ml test compound, LPS, 24 hr, Griess reagent
Experimental: Assay 3) Macrophage TNF-α NO assay. J774.1a macrophage cells were treated with 10 μg/ml of test compound dissolved in solvent for 40 minutes prior to the addition of LPS. Culture supernatants were collected after 24 hr. for determination of NO concentration using the Griess reagent.

COC(=O)c1cc(O)c(O)c2c1[C@@]1(C)CCC3C(C)(C)CCC[C@]3(C)[C@H]1C2 (stereo partly drawn) [Compound 8-Epipelorol, 8-Epipelorol, reference compound]
Assay Number 3: Macrophage NO: +

COC(=O)c1cc(O)c(O)c2c1[C@]1(C)CCC3C(C)(C)CCC[C@]3(C)[C@@H]1C2 (stereo partly drawn) [Compound 9-Epipelorol, 9-Epipelorol, reference compound]
Assay Number 3: Macrophage NO: +

COC(=O)c1cc(O)c(O)c2c1[C@]1(C)CCC3C(C)(C)CCC[C@]3(C)[C@H]1C2 (stereo partly drawn) [Pelorol, pelorol, reference compound]
Assay Number 3: Macrophage NO: +
